Some results are limits rather than exact numbers.

Sequences of proteins named here, by UniProt entry; tags and fusion partners are left off.
UniProt O43613, whole entry: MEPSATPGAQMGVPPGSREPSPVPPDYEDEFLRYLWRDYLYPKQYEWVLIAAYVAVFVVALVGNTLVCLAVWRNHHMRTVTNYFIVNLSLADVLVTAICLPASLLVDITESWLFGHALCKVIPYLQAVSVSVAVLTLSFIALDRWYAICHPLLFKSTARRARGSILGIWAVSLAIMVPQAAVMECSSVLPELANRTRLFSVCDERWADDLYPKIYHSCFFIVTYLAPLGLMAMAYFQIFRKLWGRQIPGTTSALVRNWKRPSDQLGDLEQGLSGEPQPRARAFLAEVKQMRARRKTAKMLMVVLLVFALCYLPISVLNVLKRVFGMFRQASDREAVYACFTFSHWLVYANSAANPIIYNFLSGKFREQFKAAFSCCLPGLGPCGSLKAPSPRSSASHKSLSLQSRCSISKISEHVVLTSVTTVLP
UniProt O43614, whole entry: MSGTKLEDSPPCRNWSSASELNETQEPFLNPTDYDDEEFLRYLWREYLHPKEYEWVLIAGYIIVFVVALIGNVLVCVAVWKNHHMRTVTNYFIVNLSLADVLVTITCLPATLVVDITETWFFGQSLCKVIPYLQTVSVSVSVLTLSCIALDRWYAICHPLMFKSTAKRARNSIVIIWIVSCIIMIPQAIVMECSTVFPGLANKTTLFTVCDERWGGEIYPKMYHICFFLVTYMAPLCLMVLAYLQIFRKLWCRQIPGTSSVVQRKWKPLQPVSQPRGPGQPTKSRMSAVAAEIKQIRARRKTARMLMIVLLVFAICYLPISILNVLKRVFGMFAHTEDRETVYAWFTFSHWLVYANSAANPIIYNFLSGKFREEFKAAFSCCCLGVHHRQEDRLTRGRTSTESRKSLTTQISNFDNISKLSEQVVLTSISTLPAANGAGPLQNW

The target in one experiment is T1, OX1 (Homo sapiens, UniProt O43613).
T1 construct: expressed in transfected cells; host or cells: CHO (CHO-OX1, kept under selection antibiotic)
In words: Orexin receptor cell-based functional assay, [Ca2+]i by FLIPR, CHO-OX1 cells. The following applies: CHO-OX1 cells, [Ca2+]i by FLIPR, antagonist dose-range 0.1 nM-10 μM, EC90 of OXA; read-out: OX1.
In the case of `Cc1ccc(-n2nccn2)c(C(=O)N2CCC[C@@H](C)[C@H]2CNc2nccc(C(F)(F)F)n2)c1` [Example A163, ((2S,3R)-3-Methyl-2-(((4-(trifluoromethyl)pyrimidin-2-yl)amino)methyl)piperidin-1-yl)(5-methyl-2-(2H-1,2,3-triazol-2-yl)phenyl)methanone], the IC50 was found to be 0.071 µM.
Consider `Cc1ccc(-n2cccn2)c(C(=O)N2CCC[C@@H](C)[C@H]2CNc2ccc(C(F)(F)F)nn2)n1` [Example A164, ((2S,3R)-3-Methyl-2-(((6-(trifluoromethyl)pyridazin-3-yl)amino)methyl)piperidin-1-yl)(6-methyl-3-(1H-pyrazol-1-yl)pyridin-2-yl)methanone], for which the IC50 came out at 0.075 µM.
On to `Cc1ccc(-c2ccccn2)c(C(=O)N2CCC[C@@H](C)[C@H]2CNc2ccc(C(F)(F)F)nn2)n1` [Example A165, ((2S,3R)-3-methyl-2-(((6-(trifluoromethyl)pyridazin-3-yl)amino)methyl)piperidin-1-yl)(6′-methyl-[2,3′-bipyridin]-2′-yl)methanone], for which the IC50 was 0.027 µM.
Take `Cc1ccc(-n2nccn2)c(C(=O)N2CCC[C@@H](C)[C@H]2CNc2ncc(F)cc2F)c1` [Example A172, ((2S,3R)-2-(((3,5-Difluoropyridin-2-yl)amino)methyl)-3-methylpiperidin-1-yl)(5-methyl-2-(2H-1,2,3-triazol-2-yl)phenyl)methanone]: the IC50 came to 0.064 µM.
With `Cc1ccc(-n2nccn2)c(C(=O)N2CCC[C@@H](C)[C@H]2CNc2ncc(Cl)cc2F)c1` [Example A173, ((2S,3R)-2-(((5-Chloro-3-fluoropyridin-2-yl)amino)methyl)-3-methylpiperidin-1-yl)(5-methyl-2-(2H-1,2,3-triazol-2-yl)phenyl)methanone], the IC50 worked out at 0.001 µM.
Turning to `Cc1ccc(-n2nccn2)c(C(=O)N2CCC[C@@H](C)[C@H]2CNc2ccc(Cl)cn2)n1` [Example A178, ((2S,3R)-2-(((5-Chloropyridin-2-yl)amino)methyl)-3-methylpiperidin-1-yl)(6-methyl-3-(2H-1,2,3-triazol-2-yl)pyridin-2-yl)methanone], the IC50 worked out at 0.004 µM.
On the same count and under the same terms, to `Cc1ccc(-n2nccn2)c(C(=O)N2CCC[C@@H](C)[C@H]2CNc2nnc(C(F)(F)F)s2)n1` [Example A191, ((2S,3R)-3-Methyl-2-(((5-(trifluoromethyl)-1,3,4-thiadiazol-2-yl)amino)methyl)piperidin-1-yl)(6-methyl-3-(2H-1,2,3-triazol-2-yl)pyridin-2-yl)methanone] belongs 0.043 µM; to `Cc1ccc(NC[C@@H]2[C@H](C)CCCN2C(=O)c2nc(C)ccc2-n2nccn2)nc1` [Example A196, ((2S,3R)-3-Methyl-2-(((5-methylpyridin-2-yl)amino)methyl)piperidin-1-yl)(6-methyl-3-(2H-1,2,3-triazol-2-yl)pyridin-2-yl)methanone], 0.017 µM; to `Cc1ccc(-c2cccnn2)c(C(=O)N2CCC[C@@H](C)[C@H]2CNc2ncc(C(F)(F)F)cn2)c1` [Example A198, ((2S,3R)-3-Methyl-2-(((5-(trifluoromethyl)pyrimidin-2-yl)amino)methyl)piperidin-1-yl)(5-methyl-2-(pyridazin-3-yl)phenyl)methanone], 0.005 µM.
On the same count and under the same terms, to `C[C@@H]1CCCN(C(=O)c2cc(F)ccc2-n2nccn2)[C@@H]1CNc1ncc(C(F)(F)F)cn1` [Example A207, (5-Fluoro-2-(2H-1,2,3-triazol-2-yl)phenyl)((2S,3R)-3-methyl-2-(((5-(trifluoromethyl)pyrimidin-2-yl)amino)methyl)piperidin-1-yl)methanone] belongs 0.011 µM.
Regarding `Cc1ccc(-n2nccn2)c(C(=O)N2CCC(F)(F)C[C@H]2CNc2ccc(Cl)cn2)c1` [Example A210, (S)-(2-(((5-Chloropyridin-2-yl)amino)methyl)-4,4-difluoropiperidin-1-yl)(5-methyl-2-(2H-1,2,3-triazol-2-yl)phenyl)methanone], the IC50 amounted to 0.14 µM.
As for `Cc1ccc(-n2nccn2)c(C(=O)N2CCC(F)(F)C[C@H]2CNc2ncc(C(F)(F)F)cn2)c1` [Example A211, (S)-(4,4-Difluoro-2-(((5-(trifluoromethyl)pyrimidin-2-yl)amino)methyl)piperidin-1-yl)(5-methyl-2-(2H-1,2,3-triazol-2-yl)phenyl)methanone], the IC50 is 0.14 µM.
In the case of `Cc1ccc(-n2nccn2)c(C(=O)N2CCC[C@@H](C)[C@H]2CNc2ncc3ccc(C)cc3n2)c1` [Example A215, ((2S,3R)-3-Methyl-2-(((7-methylquinazolin-2-yl)amino)methyl)piperidin-1-yl)(5-methyl-2-(2H-1,2,3-triazol-2-yl)phenyl)methanone], the IC50 came out at 0.01 µM.
The same measure, in the same setting: the value for `Cc1ccc(-n2nccn2)c(C(=O)N2CCC[C@@H](C)[C@H]2CNc2ncc3ccccc3n2)c1` [Example A216, ((2S,3R)-3-Methyl-2-((quinazolin-2-ylamino)methyl)piperidin-1-yl)(5-methyl-2-(2H-1,2,3-triazol-2-yl)phenyl)methanone] was 0.005 µM; that for `C[C@@H]1CCCN(C(=O)c2cc(F)ccc2-c2ncccn2)[C@@H]1CNc1ncc(Cl)cn1` [Example A226, ((2S,3R)-2-(((5-Chloropyrimidin-2-yl)amino)methyl)-3-methylpiperidin-1-yl)(5-fluoro-2-(pyrimidin-2-yl)phenyl) methanone] was 0.011 µM; that for `C[C@@H]1CCCN(C(=O)c2c(F)cccc2-c2ncccn2)[C@@H]1CNc1ccc(C(F)(F)F)cn1` [Example A241, (2-Fluoro-6-(pyrimidin-2-yl)phenyl)((2S,3R)-3-methyl-2-(((5-(trifluoromethyl)pyridin-2-yl)amino)methyl)piperidin-1-yl)methanone] was 0.009 µM.
Turning to `C[C@@H]1CCCN(C(=O)c2cc(F)c(F)cc2-n2nccn2)[C@@H]1CNc1ccc(Cl)cn1` [Example A246, ((2S,3R)-2-(((5-Chloropyridin-2-yl)amino)methyl)-3-methylpiperidin-1-yl)(4,5-difluoro-2-(2H-1,2,3-triazol-2-yl)phenyl)methanone], the IC50 is above 0.1 µM.
For `C[C@@H]1CCCN(C(=O)c2ccc(F)cc2-n2nccn2)[C@@H]1CNc1ccc(C(F)(F)F)cn1` [Example A250, (4-Fluoro-2-(2H-1,2,3-triazol-2-yl)phenyl)((2S,3R)-3-methyl-2-(((5-(trifluoromethyl)pyridin-2-yl)amino)methyl)piperidin-1-yl)methanone], the IC50 worked out at 0.047 µM.
With `C[C@@H]1CCCN(C(=O)c2cccc(F)c2-n2nccn2)[C@@H]1CNc1ncc(C(F)(F)F)cn1` [Example A256, (3-Fluoro-2-(2H-1,2,3-triazol-2-yl)phenyl)((2S,3R)-3-methyl-2-(((5-(trifluoromethyl)pyrimidin-2-yl)amino)methyl)piperidin-1-yl)methanone], the IC50 is 0.005 µM.
On the same count and under the same terms, the value for `Cc1cccc(C(=O)N2CCC[C@@H](C)[C@H]2CNc2ccc(C(F)(F)F)cn2)c1-n1nccn1` [Example A266, ((2S,3R)-3-Methyl-2-(((5-(trifluoromethyl)pyridin-2-yl)amino)methyl)piperidin-1-yl)(3-methyl-2-(2H-1,2,3-triazol-2-yl)phenyl)methanone] was 0.004 µM; that for `Cc1cccc(C(=O)N2CCC[C@@H](C)[C@H]2CNc2ncc(C(F)(F)F)cn2)c1-n1nccn1` [Example A267, ((2S,3R)-3-Methyl-2-(((5-(trifluoromethyl)pyrimidin-2-yl)amino)methyl)piperidin-1-yl)(3-methyl-2-(2H-1,2,3-triazol-2-yl)phenyl)methanone] was 0.006 µM; that for `Cc1cccc(C(=O)N2CCC[C@@H](C)[C@H]2CNc2ncc(Cl)cn2)c1-n1nccn1` [Example A268, ((2S,3R)-2-(((5-Chloropyrimidin-2-yl)amino)methyl)-3-methylpiperidin-1-yl)(3-methyl-2-(2H-1,2,3-triazol-2-yl)phenyl)methanone] was 0.003 µM.
For the compound `Cc1ccc(C(=O)N2CCC[C@@H](C)[C@H]2CNc2ncc(Cl)cn2)c(-n2nccn2)c1` [Example A271, ((2S,3R)-2-(((5-Chloropyrimidin-2-yl)amino)methyl)-3-methylpiperidin-1-yl)(4-methyl-2-(2H-1,2,3-triazol-2-yl)phenyl)methanone], the IC50 was 0.086 µM.
For `Cc1ccc(-c2ncccn2)c(C(=O)N2CCC(F)(F)C[C@H]2CNc2ncc(C(F)(F)F)cn2)c1` [Example A312, (S)-(4,4-Difluoro-2-(((5-(trifluoromethyl)pyrimidin-2-yl)amino)methyl)piperidin-1-yl)(5-methyl-2-(pyrimidin-2-yl)phenyl)methanone], the IC50 was 0.144 µM.
On the same count and under the same terms, the value for `Cc1ccc(-c2cnn(C)c2)c(C(=O)N2CCC[C@H](C)[C@@H]2CNc2ccc(C(F)(F)F)cn2)c1` [Example A315, ((2R,3S)-3-Methyl-2-(((5-(trifluoromethyl)pyridin-2-yl)amino)methyl)piperidin-1-yl)(5-methyl-2-(1-methyl-1H-pyrazol-4-yl)phenyl)methanone] was 2.5 µM.
On the same count and under the same terms, the value for `COc1ccc(-n2nccn2)c(C(=O)N2CCC[C@@H](C)[C@H]2CNc2ccc(C(F)(F)F)cn2)c1F` [Example A338, (2-Fluoro-3-methoxy-6-(2H-1,2,3-triazol-2-yl)phenyl)((2S,3R)-3-methyl-2-(((5-(trifluoromethyl)pyridin-2-yl)amino)methyl)piperidin-1-yl)methanone] was below 0.01 µM.

Still in this experiment, the particulars now being: Table 6; racemate vs enantiomers; read-out: OX1 IC50.
`Cc1ccc(-c2cnn(C)c2)c(C(=O)N2CCC[C@H](C)[C@@H]2CNc2ccc(C(F)(F)F)cn2)c1` [Example A315, ((2R,3S)-3-Methyl-2-(((5-(trifluoromethyl)pyridin-2-yl)amino)methyl)piperidin-1-yl)(5-methyl-2-(1-methyl-1H-pyrazol-4-yl)phenyl)methanone]: the IC50 turned out to be 2.5 µM.

For a further experiment, the target named is T2, OX2 (Homo sapiens, UniProt O43614).
T2 construct: expressed in transfected cells; host or cells: CHO (CHO-OX2, kept under selection antibiotic)
Briefly: Orexin receptor cell-based functional assay, [Ca2+]i by FLIPR, CHO-OX2 cells. The following applies: CHO-OX2 cells, [Ca2+]i by FLIPR, antagonist dose-range 0.1 nM-10 μM, EC90 of OXA; read-out: OX2.
For `Cc1ccc(-c2cnn(C)c2)c(C(=O)N2CCC[C@@H](C)[C@H]2CNc2nc3cc(Cl)ccc3o2)c1` [Example A40, ((2S,3R)-2-(((5-Chlorobenzo[d]oxazol-2-yl)amino)methyl)-3-methylpiperidin-1-yl)(5-methyl-2-(1-methyl-1H-pyrazol-4-yl)phenyl)methanone], the IC50 was 0.9 µM.

For the origin of these results see patent US9440982B2 (Eolas Therapeutics, Inc., priority 2012, dated 2016).
